The values below come from patent US20050208463A1, “Method of screening drug” (priority 2001, published 2005).

For this assay, the system named is Lrp-like protein. In words: Gel filtration analysis of changes in assemblies of the Lrp-like protein on mixing with potential ligands. In kind it is biochemical, Pyrococcus sp. OT3. The settings on record: metabolic intermediate 10 mM. As to the method:
Possible changes in assemblies of the Lrp-like protein induced by interaction with amino acids and metabolic intermediates were analyzed in solution using gel filtration.
Gel filtration was carried out with the flow rate […], using a matrix (Protein Pak 125, 7.8×300 mm, Waters) and 50 mM Tris-HCl buffer (pH 7.0) containing 300 mM sodium chloride. Flow of the proteins was monitored by measuring the UV absorbance at 220 nm (LC Module I plus system, Waters). The Lrp-like protein purified by method 2, i.e., the rigorous method, were dissolved in 50 mM Tris-HCl buffer (pH 7.0) containing 200 mM sodium chloride, and kept at −80° C. until it was diluted by 10-fold with 50 mM Tris-HCl buffer (pH 7.0) containing 300 mM sodium chloride, and mixed with each potential ligand for at least 30 minutes at room temperature (about 25° C.). In the mixture, the monomer concentration of the Lrp-like protein was approximately 100 μM.
For orientation: Size exclusion chromatography separates by hydrodynamic size, large species first.

On to `O=C(O)CCC(=O)C(=O)O` [2-oxoglutaric acid], for which the “effect on assembling of the Lrp-like protein concluded from gel filtration” value is given as “intermediate effects”. Besides, the “change in gel filtration profile of the Lrp-like protein (peak increased)” value (protein monomer approximately 100 μM, at least 30 minutes at room temperature, UV 220 nm) was “the third peak increased”.
